pKi: −log10 of the molar value.
Key:
[1] = molecular target: α1d-adrenoceptor (recombinant) (Homo sapiens, UniProt P25100); assay: Radioligand binding, cloned α1d-adrenoceptor ([3H]prazosin)
[2] = molecular target: T1, α1a-adrenoceptor (recombinant) (Homo sapiens, UniProt P35348); assay: Radioligand binding, cloned α1a-adrenoceptor ([3H]prazosin)
T1 sequence (P35348 1-466): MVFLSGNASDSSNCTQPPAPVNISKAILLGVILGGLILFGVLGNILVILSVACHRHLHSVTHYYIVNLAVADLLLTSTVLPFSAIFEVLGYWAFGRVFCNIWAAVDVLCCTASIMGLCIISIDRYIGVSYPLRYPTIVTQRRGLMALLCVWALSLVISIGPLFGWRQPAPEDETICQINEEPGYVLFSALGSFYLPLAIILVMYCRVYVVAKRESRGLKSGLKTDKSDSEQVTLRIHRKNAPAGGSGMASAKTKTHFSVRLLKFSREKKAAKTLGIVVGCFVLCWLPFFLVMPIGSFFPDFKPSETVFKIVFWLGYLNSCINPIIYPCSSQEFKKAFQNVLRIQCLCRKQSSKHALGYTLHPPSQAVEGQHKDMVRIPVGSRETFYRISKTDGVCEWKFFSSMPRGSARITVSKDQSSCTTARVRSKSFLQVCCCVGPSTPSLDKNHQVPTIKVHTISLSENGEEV

Sequences of proteins named here, by UniProt entry; tags and fusion partners are left off.
UniProt P25100, whole entry: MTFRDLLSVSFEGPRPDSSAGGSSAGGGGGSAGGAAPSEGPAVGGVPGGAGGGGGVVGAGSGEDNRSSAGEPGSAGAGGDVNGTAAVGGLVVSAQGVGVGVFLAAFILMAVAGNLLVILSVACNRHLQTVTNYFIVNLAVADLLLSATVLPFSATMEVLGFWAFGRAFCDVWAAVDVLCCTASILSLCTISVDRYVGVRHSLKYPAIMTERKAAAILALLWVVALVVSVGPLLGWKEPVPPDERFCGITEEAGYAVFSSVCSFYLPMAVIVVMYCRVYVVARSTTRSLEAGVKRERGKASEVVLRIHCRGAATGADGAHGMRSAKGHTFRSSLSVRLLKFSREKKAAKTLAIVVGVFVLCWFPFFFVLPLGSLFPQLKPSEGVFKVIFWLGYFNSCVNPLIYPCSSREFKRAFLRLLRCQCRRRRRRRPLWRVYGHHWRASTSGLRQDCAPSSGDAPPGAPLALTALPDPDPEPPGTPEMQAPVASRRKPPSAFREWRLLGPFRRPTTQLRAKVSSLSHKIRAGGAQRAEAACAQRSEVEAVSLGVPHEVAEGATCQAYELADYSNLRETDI

With `COc1ccccc1N1CCN(CCCNC(=O)c2cccc3c(=O)c(C)c(-c4ccccc4)oc23)CC1` [Compound A, reference compound] as the molecule, how does the pKi [1] read?
The pKi was 8.82.

What about the pKi [2] of the same molecule?
The pKi was 9.19.

Reference: US6403594B1, “Benzopyran derivatives” (Recordati, S.A. Chemical and Pharmaceutical Company, priority 1999, dated 2002)
